Experimental data published in US20050079156A1, “Method of treating endometreosis” (priority 2001, published 2005).

Tested on: human adipocytes
Assay: Estradiol production in cultured human adipocytes (estradiol in conditioned media)
Assay type: cell-based
Settings: mix of IL-1b, TNF-α, IL-6, IL-8, IL-11, oncostatin M 0.01 ug/ml each; 72 hr; IFN-γ 0.1 ug/ml, IFN-α 1 ug/ml, IFN-b 2 ug/ml; FIG. 4
Method: Human subcutaneous cultured adipocytes, catalog nos. SP-1012, SP-1024, SP-1096, SP-75, or SP-25 were purchased from Zen-Bio, Inc. (Research Triangle Park, N.C.) and cultured according to the manufacturer's instructions.
Human adipocytes (approximately 100,000 cells/well) were cultured for 24 hr in the presence or absence of different doses of IL-1α and IL-1β (as indicated) with and without IFN-γ (0.1 ug/ml, IL-1α, IL-1β and IFN-γ were purchased from R&D). The amount of estradiol release in the conditioned media was determined by radioimmunoassay for estradiol using the Active™ Estradiol EIA kit according to the manufacturer's instructions (catalog no. DSL-10-4300, Diagnostic Systems Laboratories, Inc., Webster, Tex.). […]
Human adipocytes (100,000 cells/well) were cultured for 72 hr with and without increasing doses of IFN-γ (0.0001 to 1 ug/ml, purchased from R&D). The amount of estradiol in the conditioned media was determined by radioimmunoassay as described in Example 1. […]
Human adipocytes (100,000 cells/well) were cultured for 72 hr in the presence or absence of different doses of the mix Cytokines (IL-1b, TNF-α, IL-6, IL-8, IL-11 and oncostatin M, 0.01 ug/ml/each—dilution as indicated) with and without IFN-γ (0.1 ug/ml), […] (1 ug/ml) or IFN-b (2 ug/ml). […] The amount of estradiol release in the conditioned media was determined by radioimmunoassay as described in Example 1. […]

B1: IFN-β: interferon beta, obtained from Serono (protein, UniProt P01574 22-187, looked up)
Interferon beta: MSYNLLGFLQRSSNFQCQKLLWQLNGRLEYCLKDRMNFDIPEEIKQLQQFQKEDAALTIYEMLQNIFAIFRQDSSSTGWNETIVENLLANVYHQINHLKTVLEEKLEKEDFTRGKLMSSLHLKRYYGRILHYLKAKEYSHCAWTIVRVEILRNFYFINRLTGYLRN
- estradiol production stimulated by a mixture of 6 cytokines: do not inhibit
